The text below walks through data of ChEMBL document CHEMBL4311995, “Discovery and development of extreme selective inhibitors of the ITD and D835Y mutant FLT3 kinases” (Eur J Med Chem, 2019).

In the test the test system is U-937. Kind of test: cells. The test is classed as functional, cell-based. As to conditions: Homo sapiens, U-937, 72 h.

In turn, `CSc1ccc(/C=C/c2nc(NCCN(C)C)c3ccccc3n2)cc1` registered a concentration for half-maximal inhibition (IC50) of 6.63 µM.
The value for `CC(C)c1ccc(/C=C/c2nc(NCCN(C)C)c3cc(Cl)ccc3n2)cc1` was 3.56 µM.

By IC50 is commonly meant the concentration that inhibits the measured activity by half. A lower IC50 goes with inhibition by little substance.
